What follows are compounds tested against T1, human RXFP1 (Homo sapiens, UniProt Q9HBX9) (assay: RXFP1 Hu cAMP (Test A)).
T1 sequence (Q9HBX9 1-757): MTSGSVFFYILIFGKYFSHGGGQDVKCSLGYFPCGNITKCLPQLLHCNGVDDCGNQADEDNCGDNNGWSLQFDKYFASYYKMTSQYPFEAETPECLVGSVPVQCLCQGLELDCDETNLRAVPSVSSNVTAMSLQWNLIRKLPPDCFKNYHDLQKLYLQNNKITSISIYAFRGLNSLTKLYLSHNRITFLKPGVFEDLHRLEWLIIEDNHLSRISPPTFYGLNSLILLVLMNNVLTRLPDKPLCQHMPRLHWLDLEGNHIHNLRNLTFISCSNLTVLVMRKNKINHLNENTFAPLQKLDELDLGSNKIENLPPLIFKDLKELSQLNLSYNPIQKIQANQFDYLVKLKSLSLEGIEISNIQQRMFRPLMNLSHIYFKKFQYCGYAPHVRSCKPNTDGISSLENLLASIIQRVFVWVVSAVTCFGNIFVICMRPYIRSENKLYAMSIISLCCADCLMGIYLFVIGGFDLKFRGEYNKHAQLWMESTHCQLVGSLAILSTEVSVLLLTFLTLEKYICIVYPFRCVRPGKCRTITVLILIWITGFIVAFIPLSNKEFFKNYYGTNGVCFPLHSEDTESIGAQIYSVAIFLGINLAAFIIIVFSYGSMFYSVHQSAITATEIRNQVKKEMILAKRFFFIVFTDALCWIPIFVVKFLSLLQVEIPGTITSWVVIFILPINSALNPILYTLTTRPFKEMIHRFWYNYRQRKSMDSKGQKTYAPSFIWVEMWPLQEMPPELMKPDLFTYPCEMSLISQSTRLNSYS
Type: cell-based
Set-up: expressed in transfected cells; host or cells: Jump-In T-REx CHO-K1 cells (ThermoFisher), induced with 10 ng/ml doxycycline for 24 h

Compound	EC50 [nM]
COc1cc(F)c(-c2cncc(C(=O)O)c2)cc1C(=O)N[C@H]1[C@@H](C(=O)Nc2cccc(S(=O)(=O)C(F)(F)F)c2)[C@@H]2C=C[C@H]1C2 (racemic) [Example 228]	1100
COc1cc(F)c(O[C@H]2CC[C@@H](C(=O)O)CC2)cc1C(=O)N[C@@H]1[C@H]2CC[C@H](C2)[C@@H]1C(=O)Nc1cc(C(F)(F)F)cc(C(F)(F)F)c1 [Example 22, (1S,4s)-4-(5-(((1S,2R,3S,4R)-3-((3,5-Bis(trifluoromethyl)phenyl)carbamoyl)bicyclo[2.2.1]heptan-2-yl)carbamoyl)-2-fluoro-4-methoxyphenoxy)cyclohexane-1-carboxylic acid]	290
(1R,4s)-4-(2-Fluoro-4-methoxy-5-(((3S*,4R*)-4-(((1-methylcyclobutyl)methyl)carbamoyl)tetrahydrofuran-3-yl)carbamoyl)phenoxy)-1-methylcyclohexane-1-carboxylic acid [Example 577]	> 40000
(1R,4s)-4-(2-Fluoro-4-methoxy-5-(((1S*,2R*,4R*)-4-methoxy-2-(neopentylcarbamoyl)cyclopentyl)carbamoyl)phenoxy)-1-methylcyclohexane-1-carboxylic acid [Example 547]	1700
COc1cc(F)c(-c2ccc(C(=O)O)cc2)cc1C(=O)N[C@H]1[C@@H](C(=O)Nc2cc(F)cc(C(F)(F)F)c2)[C@@H]2C=C[C@H]1C2 (racemic) [Example 308]	1100
COc1cc(F)c(O[C@H]2CC[C@@](CO)(C(=O)O)CC2)cc1C(=O)N[C@H]1[C@@H](C(=O)NCC2(C)CCC2)[C@H]2CC[C@@H]1O2 (racemic) [Example 332]	290
(1R,4s)-4-(2-Cyano-4-fluoro-5-(((2S*,3R*)-3-(((1-methylcyclobutyl)methyl)carbamoyl)bicyclo[2.2.2]octan-2-yl)carbamoyl)phenoxy)-1-methylcyclohexane-1-carboxylic acid [Example 589]	2100
COC(=O)[C@]1(C(=O)O)CC[C@@H](Oc2cc(C(=O)N[C@@H]3[C@H]4CC[C@H](C4)[C@@H]3C(=O)NCC3(C)CCC3)c(OC(C)C)cc2F)CC1 [Example 485, (1R,4r)-4-(2-Fluoro-4-isopropoxy-5-(((1S,2R,3S,4R)-3-(((1-methylcyclobutyl)methyl)carbamoyl)bicyclo[2.2.1]heptan-2-yl)carbamoyl)phenoxy)-1-(methoxycarbonyl)cyclohexane-1-carboxylic acid]	280
COc1cc(F)c(O[C@H]2CC[C@@H](C(=O)O)CC2)cc1C(=O)NC1=C(C(=O)Nc2ccc(F)c(C(F)(F)F)c2)CCC1 [Example 214, (1s,4s)-4-(2-Fluoro-5-((2-((4-fluoro-3-(trifluoromethyl)phenyl)carbamoyl)cyclopent-1-en-1-yl)carbamoyl)-4-methoxyphenoxy)cyclohexane-1-carboxylic acid]	290
COc1cc(F)c(O[C@H]2CC[C@@](C)(C(=O)O)CC2)cc1C(=O)N[C@@H]1CCC[C@@H]1C(=O)N[C@H](C)C(C)C [Example 60]	1100
(1R,4s)-4-(2-Fluoro-4-methoxy-5-(((3S*,4R*)-4-(((1-methylcyclobutyl)methyl)carbamoyl)tetrahydrofuran-3-yl)carbamoyl)phenoxy)-1-(hydroxymethyl)cyclohexane-1-carboxylic acid [Example 581]	3200
(1R,4s)-4-(2-fluoro-4-methoxy-5-(((1S*,2R*,4R*)-4-methoxy-2-((3-((trifluoromethyl)sulfonyl)phenyl)carbamoyl)cyclopentyl)carbamoyl)phenoxy)-1-methylcyclohexane-1-carboxylic acid [Example 525]	> 40000
(1R,4s)-4-(2-fluoro-4-methoxy-5-(((3aR*,4S*,5S*,6aS*)-5-((3-((trifluoromethyl)sulfonyl)phenyl)carbamoyl)tetrahydro-4H-cyclopenta[d][1,3]dioxol-4-yl)carbamoyl)phenoxy)-1-methylcyclohexane-1-carboxylic acid [Example 513]	> 40000
(1R,4s)-4-(2-Fluoro-5-(((3S*,4S*)-4-((4-fluoro-3-(pentafluoro-λ6-sulfaneyl)phenyl)carbamoyl)tetrahydro-2H-pyran-3-yl)carbamoyl)-4-methoxyphenoxy)-1-methylcyclohexane-1-carboxylic acid [Example 575]	290
(1R,4s)-4-(2-Cyano-4-methoxy-5-(((1S*,2R*)-2-(((1-methylcyclobutyl)methyl)carbamoyl)cyclobutyl)carbamoyl)phenoxy)-1-methylcyclohexane-1-carboxylic acid [Example 573]	280
COc1cc(F)c(O[C@H]2CC[C@@H](C(=O)O)CC2)cc1C(=O)N[C@@H]1[C@H]2CC[C@H](C2)[C@@H]1C(=O)Nc1cccc(OC(F)(F)F)c1F [Example 18]	3200
(1R,4s)-4-(5-(((3R*,4S*)-1-acetyl-3-((3-((trifluoromethyl)sulfonyl)phenyl)carbamoyl)piperidin-4-yl)carbamoyl)-2-fluoro-4-methoxyphenoxy)-1-methylcyclohexane-1-carboxylic acid [Example 515]	> 40000
(1R,4s)-4-(2-fluoro-4-methoxy-5-(((1S*,2R*)-2-((3-((trifluoromethyl)sulfonyl)phenyl)carbamoyl)cycloheptyl)carbamoyl)phenoxy)-1-methylcyclohexane-1-carboxylic acid [Example 517]	> 40000
COc1cc(F)c(O[C@H]2CC[C@](C)(CC(=O)O)CC2)cc1C(=O)N[C@@H]1[C@H]2CC[C@H](C2)[C@@H]1C(=O)NCC1(C)CCC1 [Example 477, 2-((1R,4r)-4-(2-Fluoro-4-methoxy-5-(((1S,2R,3S,4R)-3-(((1-methylcyclobutyl)methyl)carbamoyl)bicyclo[2.2.1]heptan-2-yl)carbamoyl)phenoxy)-1-methylcyclohexyl)acetic acid]	1100
(1R,4s)-4-(2-Fluoro-4-methoxy-5-(((1S*,2R*)-2-(neopentylcarbamoyl)cyclobutyl)carbamoyl)phenoxy)-1-methylcyclohexane-1-carboxylic acid [Example 569]	1100
(1R,4s)-4-(2-Fluoro-4-methoxy-5-(((1R*,2S*,3R*,4S*)-3-(((1-methylcyclobutyl)methyl)carbamoyl)bicyclo[2.2.2]oct-5-en-2-yl)carbamoyl)phenoxy)-1-methylcyclohexane-1-carboxylic acid [Example 545]	45
COc1cc(F)c(Cc2cn[nH]c2)cc1C(=O)N[C@@H]1[C@H]2CC[C@H](C2)[C@@H]1C(=O)Nc1cccc(S(=O)(=O)C(F)(F)F)c1 [Example 219, (1R,2S,3R,4S)-3-(5-((1H-Pyrazol-4-yl)methyl)-4-fluoro-2-methoxybenzamido)-N-(3-((trifluoromethyl)sulfonyl)phenyl)bicyclo[2.2.1]heptane-2-carboxamide]	280
(1R,4s)-4-(2-Fluoro-4-methoxy-5-(((3S*,4R*)-4-(neopentylcarbamoyl)tetrahydrofuran-3-yl)carbamoyl)phenoxy)-1-methylcyclohexane-1-carboxylic acid [Example 567]	10000

From patent US11667602B2, “Compounds and their use” (AstraZeneca AB, priority 2020, dated 2023)
